Results reported in patent publication US20260042731A1, “(2,4-DICHLOROPHENOXY)ACETIC ACID ANALOGS” (CORTEVA AGRISCIENCE LLC, priority 2022, published 2026).

Tested on: glyphosate resistant Conyza canadensis (L.) (ERICA), horseweed
Experiment: Postemergence herbicide evaluation, growth of Conyza canadensis (ERICA)
Assay type: in vivo
Settings: for Ave. ERICA: percent reduction in plant size vs untreated control

Compound	Ave. ERICA (280 g ae/ha, 21 DAA) [%]	Ave. ERICA (560 g ae/ha, 21 DAA) [%]	Ave. ERICA (280 g ae/ha, 14 DAA) [%]	Ave. ERICA (560 g ae/ha, 14 DAA) [%]	also measured
O=C(COc1ccc(Cl)cc1Cl)OCc1ccc(COC(=O)COc2ccc(Cl)cc2Cl)cc1 [Compound B1, 1,4-Phenylenebis(methylene) bis(2-(2,4-dichlorophenoxy)acetate)]					Ave. ERICA, percent reduction in plant size relative to the untreated control (280 g ae/ha, 14 DAA): 30%; Ave. ERICA, percent reduction in plant size relative to the untreated control (280 g ae/ha, 21 DAA): 8%; Ave. ERICA, percent reduction in plant size relative to the untreated control (560 g ae/ha, 7 DAA): 28%
O=C(COc1ccc(Cl)cc1Cl)OCCCCCOC(=O)COc1ccc(Cl)cc1Cl [Compound B8]	98.5	100			
O=C(COc1ccc(Cl)cc1Cl)OCCOC(=O)COc1ccc(Cl)cc1Cl [Compound B9]	96.5	99.5	100	93	
O=C(COc1ccc(Cl)cc1Cl)OCCCOC(=O)COc1ccc(Cl)cc1Cl [Compound B10]	90	97.5		79.5	
O=C(COc1ccc(Cl)cc1Cl)OCCCCCCOC(=O)COc1ccc(Cl)cc1Cl [Compound B12]	96	97			
O=C(COc1ccc(Cl)cc1Cl)OCCOCCOCCOC(=O)COc1ccc(Cl)cc1Cl [Compound B13]			91.5		Ave. ERICA (280 g ae/ha, 7 DAA): 85%
O=C(COc1ccc(Cl)cc1Cl)OCCOCCOCCOCCOC(=O)COc1ccc(Cl)cc1Cl [Compound B14]			100	100	Ave. ERICA (280 g ae/ha, 7 DAA): 85%
